The results in this text go back to US20100249205A1 (ARIZONA BOARD OF REGENTS, priority 2005, published 2010).

One may read the IC50 as the concentration that gives 50% inhibition.

In one data set the test system is C57BL6 mice. Put plainly: In-vivo toxicity in mice, intraperitoneal daily for 4 days. The note with it: percent decrease in lymphocyte counts relative to wortmannin as 1.0; at maximum tolerated dose or highest dose tested. The source says:
The proliferation of cells may be dependent on the PI-3 kinase-Akt-mTOR signaling pathway. In addition, signaling through PI-3 kinase and Akt appears to inhibit apoptosis. […] The MTT assay is a standard colorimetric assay for measuring cellular proliferation (cell growth). It is universally used to determine cytotoxicity of potential medicinal agents and other toxic materials. Yellow MTT (3-(4,5-Dimethylthiazol-2-yl)-2,5-diphenyltetrazolium bromide) is reduced to purple formazan in the mitochondria of living cells. This reduction takes place only when mitochondrial reductase enzymes are active, and therefore conversion is directly related to the number of viable (living) cells. […] Toxicities are measured at the maximum tolerated dose or the highest dose tested. […] Alanine aminotranferease (ALT) and aspartate aminotransferase (AST) are enzymes located in liver cells that leak out into the general circulation when liver cells are injured. […] A low liver toxicity and a high lymphocyte toxicity as a surrogate for inhibition of tumor cell growth is the desirable feature.

Another data set addresses PI-3 kinase. Format: biochemical. The note with it: read-out: PI-3 kinase inhibition IC50.

In the case of `COCC1OC(=O)C(=CN2CCCC2)C2=C(O)C(=O)C3=C(C(OC(C)=O)CC4(C)C(=O)CCC34)C21C` (stereo not drawn) [PX-867, Acetic acid 6-hydroxy-1α-methoxymethyl-10β,13β-dimethyl-3,7,17-trioxo-4-pyrrolidin-1-yl-methylene-1,3,4,7,10,11β,12,13,14α,15,16,17-dodecahydro-2-oxa-cyclopenta[α]phenanthren-11-yl], the “Lymphocyte toxicity relative to wortmannin” value in the data set on C57BL6 mice was 2.4.

For `COC[C@H]1OC(=O)c2coc3c2[C@@]1(C)C1=C(C3=O)[C@@H]2CCC(=O)[C@@]2(C)C[C@H]1OC(C)=O` [Wortmannin, wortmannin, reference compound], the IC50 on PI-3 kinase was 0.3 nM.
